# System: cochlear hair cells
# Assay: Gentamicin distribution in cochlear hair cells, RWS versus transcanal USM
substance,measurement,setting,value
Gentamicin,"gentamicin uptake in hair cells (green fluorescence), basal turn","RWS, stood 3 minutes without ultrasound",only a small amount of green dot-like fluorescence could be found
same,"gentamicin uptake in hair cells (green fluorescence), basal, second and third turn",transcanal USM,"green fluorescence was found in the basal turn, the second turn, and third turn"

# From patent US20210128457A1 (priority 2019, published 2021)
